# Permeability data for macrocyclic peptides

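Conditions beyond the assay type are not listed; see the original paper. Other peptides of the study may be missing here. Peptides that the database sets to -10, its floor, are left out.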

PAMPA measures passive passage through an artificial lipid membrane.
Permeability is in 10^-6 cm/s, converted from the database's log10 values; higher is more permeable.

- CC(C)C[C@@H]1C(=O)N(C)[C@@H](CC(C)C)C(=O)N2CCC[C@H]2C(=O)N(C)[C@H](CC(C)C)C(=O)N[C@@H](Cc2ccccc2)C(=O)N2CCC[C@@H]2C(=O)N[C@@H](C)C(=O)N1C: PAMPA 6.8 × 10^-6 cm/s
- CC(C)C[C@@H]1NC(=O)[C@@H](CC(C)C)N(C)C(=O)[C@H](C)N(C)C(=O)[C@H]2CCCN2C(=O)[C@H](Cc2ccccc2)NC(=O)[C@@H](CC(C)C)N(C)C(=O)[C@@H]2CCCN2C1=O: PAMPA 9.1 × 10^-6 cm/s
- CCCN1CC(=O)N[C@@H](CC(C)C)C(=O)N[C@@H](CC(C)C)C(=O)N2CCC[C@@H]2C(=O)N[C@@H](CC(C)C)C(=O)N[C@@H](Cc2ccccc2)C(=O)N2CCC[C@@H]2C1=O: PAMPA 1.8 × 10^-6 cm/s
- CCCN1CC(=O)N(C)[C@@H](CC(C)C)C(=O)N(Cc2ccccc2)CC(=O)N2CCC[C@@H]2C(=O)N[C@@H](CC(C)C)C(=O)N[C@@H](Cc2ccccc2)C(=O)N2CCC[C@H]2C1=O: PAMPA 0.35 × 10^-6 cm/s
- CCCN1CC(=O)N(C)[C@H](CC(C)C)C(=O)N[C@H](CC(C)C)C(=O)N2CCC[C@@H]2C(=O)N[C@@H](CC(C)C)C(=O)N[C@@H](Cc2ccccc2)C(=O)N2CCC[C@H]2C1=O: PAMPA 0.38 × 10^-6 cm/s
- CC(C)C[C@@H]1C(=O)N[C@@H](Cc2ccccc2)C(=O)N[C@@H](Cc2ccccc2)CC(=O)N(C)[C@@H](CC(C)C)C(=O)N[C@H](CC(C)C)C(=O)N2CCC[C@H]2C(=O)N1C: PAMPA 6.9 × 10^-6 cm/s
- CC(C)C[C@@H]1NC(=O)C[C@H](Cc2ccccc2)NC(=O)[C@H]2CCCN2C(=O)[C@H](Cc2ccccc2)NC(=O)[C@@H](CC(C)C)NC(=O)[C@@H]2CCCN2C(=O)[C@H](CC(C)C)N(C)C1=O: PAMPA 2.2 × 10^-6 cm/s
- CC(C)C[C@@H]1NC(=O)[C@H](C)NC(=O)[C@@H]2CCCN2C(=O)[C@H](Cc2ccccc2)NC(=O)[C@@H](CC(C)C)NC(=O)[C@@H]2CCCN2C(=O)[C@@H](CC(C)C)NC1=O: PAMPA 0.71 × 10^-6 cm/s
- CC(C)C[C@@H]1NC(=O)[C@@H](CC(C)C)N(C)C(=O)[C@H](C)N(C)C(=O)[C@@H]2CCCN2C(=O)[C@H](Cc2ccccc2)NC(=O)[C@@H](CC(C)C)NC(=O)[C@H]2CCCN2C1=O: PAMPA 1.1 × 10^-6 cm/s
- CC(C)C[C@@H]1NC(=O)[C@@H](CC(C)C)N(C)C(=O)[C@@H](C)NC(=O)[C@H]2CCCN2C(=O)[C@H](Cc2ccccc2)NC(=O)[C@@H](CC(C)C)N(C)C(=O)[C@@H]2CCCN2C1=O: PAMPA 6.6 × 10^-6 cm/s
- CC(C)C[C@@H]1NC(=O)[C@@H](C)NC(=O)[C@H]2CCCN2C(=O)[C@H](Cc2ccccc2)NC(=O)CN(Cc2ccccc2)C(=O)[C@H]2CCCN2C(=O)CN(Cc2ccccc2)C1=O: PAMPA 0.95 × 10^-6 cm/s
- CC(C)C[C@@H]1C(=O)N[C@@H](Cc2ccccc2)C(=O)N[C@H](C)C(=O)N[C@H](CC(C)C)C(=O)N[C@H](CC(C)C)C(=O)N2CCC[C@H]2C(=O)N1C: PAMPA 0.17 × 10^-6 cm/s
- CC(C)C[C@@H]1C(=O)N[C@H](CC(C)C)C(=O)N2CCC[C@@H]2C(=O)N(Cc2ccccc2)CC(=O)N[C@@H](Cc2ccccc2)C(=O)N[C@@H](Cc2ccccc2)CC(=O)N1C: PAMPA 3.3 × 10^-6 cm/s
- CC(C)C[C@@H]1C(=O)N2CCC[C@@H]2C(=O)N[C@H](CC(C)C)C(=O)N[C@@H](Cc2ccccc2)C(=O)N[C@H](C)C(=O)N[C@H](CC(C)C)C(=O)N1C: PAMPA 0.79 × 10^-6 cm/s
- CC(C)C[C@@H]1NC(=O)[C@@H](CC(C)C)N(C)C(=O)[C@@H](C)NC(=O)[C@H](Cc2ccccc2)NC(=O)[C@H](CC(C)C)N(C)C(=O)[C@H]2CCCN2C1=O: PAMPA 12 × 10^-6 cm/s
- CCCN1CC(=O)N(C)[C@@H](CC(C)C)C(=O)N[C@@H](CC(C)C)C(=O)N2CCC[C@@H]2C(=O)N(C)[C@H](CC(C)C)C(=O)N[C@@H](Cc2ccccc2)C(=O)N2CCC[C@H]2C1=O: PAMPA 6.9 × 10^-6 cm/s

Values of Townsend et al. 2020, doi:10.26434/chemrxiv.13335941.v1, as listed in CycPeptMPDB.